scFv variants of Ab-14 (heavy chain) against a SARS-CoV-2 spike peptide

Source: Engelhart et al. 2022 (doi:10.1038/s41597-022-01779-4), MIT Lincoln Laboratory and A-Alpha Bio; data file from the FLAb repository.

All variants were tested on one target, the spike HR2 peptide PDVDLGDISGINAS (SARS-CoV-2).

Parent: Ab-14, a human scFv built as VH, three GGGGS repeats, VL. Only the CDRs of the heavy chain vary.
VH: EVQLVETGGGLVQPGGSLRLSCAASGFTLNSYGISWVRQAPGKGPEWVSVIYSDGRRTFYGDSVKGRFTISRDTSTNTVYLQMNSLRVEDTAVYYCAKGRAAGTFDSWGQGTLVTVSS
VL: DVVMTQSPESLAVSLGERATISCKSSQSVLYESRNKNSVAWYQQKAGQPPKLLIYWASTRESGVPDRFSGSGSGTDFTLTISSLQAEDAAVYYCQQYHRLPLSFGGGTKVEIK

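Phage display of a naive human antibody library on the peptide gave the parent. In library AAYL49, one, two or three CDR residues were substituted; doubles and triples were drawn at random. In AlphaSeq, yeast of one mating type display the scFv and yeast of the other type display the target. Pairs that bind mate more often; barcode pairs of the diploids are counted by sequencing. Each replicate has its own calibration line, from reference interactions of the BCL2 family. Each pool was mated in three replicate cultures.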

Sequences are complete VH domains.
Values are log10 of the apparent Kd in nM; lower means stronger binding.
An entry "nd" has no value in the source: the pair was not observed among the diploids in that replicate. This suggests poor binding but is not conclusive.
In this assay the parent's reference entry averaged 0.65; its copy inside this library read 4.11 (one replicate of three).

VH	log10 Kd (nM) by replicate	empty controls
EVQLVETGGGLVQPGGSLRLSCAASGFTLNSYGISWVRQAPGKGPEWVSVIYSDGRFLFYGDSVKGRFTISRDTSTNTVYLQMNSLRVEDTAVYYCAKGRAAGTFDSWGQGTLVTVSS	nd / 3.42 / nd	2/9 (4.16)
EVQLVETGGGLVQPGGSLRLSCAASGFTLNSYGISWVRQAPGKGPEWVSVIYSIQRRTPYGDSVKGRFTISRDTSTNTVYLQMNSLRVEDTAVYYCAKGRAAGTFDSWGQGTLVTVSS	nd / nd / nd	0/9
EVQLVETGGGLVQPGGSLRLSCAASGFTHNSYGISWVRQAPGKGPEWVSVIYSYGRRTFYGDSVKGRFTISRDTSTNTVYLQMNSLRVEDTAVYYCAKGRAAGTFDKWGQGTLVTVSS	nd / nd / nd	0/9
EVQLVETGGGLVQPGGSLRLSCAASGFTLNSYGISWVRQAPGKGPEWVSVIYSDGRRTNYGDSVKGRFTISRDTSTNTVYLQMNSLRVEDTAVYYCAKGRAAIVFDSWGQGTLVTVSS	nd / nd / nd	0/9
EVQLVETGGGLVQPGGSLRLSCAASGFTLNSYQISWVRQAPGKGPEWVSVIYSWGRRTFFGDSVKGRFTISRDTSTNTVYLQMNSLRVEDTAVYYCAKGRAAGTFDSWGQGTLVTVSS	nd / nd / 3.64	4/9 (3.70)
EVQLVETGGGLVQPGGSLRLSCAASGFTLNSYGWSWVRQAPGKGPEWVSYIYSDGRRTFYGDSVKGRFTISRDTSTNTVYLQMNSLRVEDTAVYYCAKHRAAGTFDSWGQGTLVTVSS	nd / 3.25 / nd	1/9 (4.03)
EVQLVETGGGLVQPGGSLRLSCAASGFTLNSYGISWVRQAPGKGPEWVSVIYSDGRLTFYSDSVKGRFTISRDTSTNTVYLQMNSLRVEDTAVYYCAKGRAAGTPDSWGQGTLVTVSS	nd / nd / nd	0/9
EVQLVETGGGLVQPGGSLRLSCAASGFTLNSLGISWVRQAPGKGPEWVSVIYSDWRRTFYGDSVKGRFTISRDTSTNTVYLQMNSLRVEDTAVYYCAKARAAGTFDSWGQGTLVTVSS	nd / nd / nd	1/9 (3.61)
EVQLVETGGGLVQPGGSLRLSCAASGFTKNNYGISWVRQAPGKGPEWVSVIYSDGRRTFQGDSVKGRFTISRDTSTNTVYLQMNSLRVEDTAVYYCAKGRAAGTFDSWGQGTLVTVSS	nd / 4.35 / 4.26	3/9 (3.79)
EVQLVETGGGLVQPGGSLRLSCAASGFTLNSYGRSWVRQAPGKGPEWVSAIYSDGRRTFYGDSVKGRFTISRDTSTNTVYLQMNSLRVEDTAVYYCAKGRAAETFDSWGQGTLVTVSS	nd / nd / nd	0/9
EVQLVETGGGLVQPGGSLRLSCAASGFMLNSYGISWVRQAPGKGPEWVSVIYSDGRRTFMGDSVKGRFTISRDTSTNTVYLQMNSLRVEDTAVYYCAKGRAAGTFDHWGQGTLVTVSS	3.37 / 2.82 / nd	0/9
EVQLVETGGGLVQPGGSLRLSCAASGFTLNSMGISWVRQAPGKGPEWVSVIYSDGRRTFYNDKVKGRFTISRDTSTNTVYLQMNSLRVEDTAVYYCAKGRAAGTFDSWGQGTLVTVSS	nd / nd / nd	1/9 (2.46)
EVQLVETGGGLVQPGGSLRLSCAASGFTLNSYGISWVRQAPGKGPEWVSVIYWDGRRTFPGDSVKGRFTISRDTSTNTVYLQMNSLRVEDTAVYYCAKGRAAGTDDSWGQGTLVTVSS	nd / nd / nd	1/9 (3.13)
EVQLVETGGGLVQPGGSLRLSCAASGFTLNSYGISWVRQAPGKGPEWVSVPYSDHRRTFYGDSVKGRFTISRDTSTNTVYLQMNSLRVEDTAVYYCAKGRAAGTFMSWGQGTLVTVSS	2.40 / nd / nd	0/9
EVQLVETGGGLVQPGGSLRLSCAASGFTLNSYGISWVRQAPGKGPEWVSVIYSDGRRTMYGMSVKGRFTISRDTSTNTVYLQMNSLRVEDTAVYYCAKGRAAGTFDSWGQGTLVTVSS	nd / nd / nd	0/9
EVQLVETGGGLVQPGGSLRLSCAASGFTLNSYGISWVRQAPGKGPEWVSVIYSDGARTFYGDSVIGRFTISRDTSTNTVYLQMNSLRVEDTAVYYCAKGRMAGTFDSWGQGTLVTVSS	4.73 / nd / 5.63	2/9 (3.75)

Background: pairings of library AAYL49 with three empty control strains gave a value in 15% of cases (median 4.06, 5th percentile 2.83). Values in that range, when seen in few replicates, are hard to tell from nonspecific mating. Also given: how often the same scFv was detected with the empty control strains, with their mean in brackets.